Assay [1] concerns the target human platelet glycoprotein Ibα (human (endogenous in platelets)) (UniProt P07359). In words: co-IP; GPIbα precipitated with an anti-GPIbα antibody on protein G magnetic beads from lysates of washed human platelets, resting or activated with VWF/ristocetin (0.4 mg/mL), with DMSO or LatA (15 µM); PHEM buffer, 1% Triton X-100, 0.5% N-octylglucoside, 2 µM phalloidin; washes with 500 mM NaCl; blots for β-actin and MICAL1.

Assay [2] deals with mouse platelet glycoprotein Ibα (mouse (endogenous in platelets)) (UniProt O35930). Description: co-IP; GPIbα precipitated with anti-GPIbα antibodies (Xia.G5/Xia.G7) from lysates of shear-activated mouse platelets scraped from a recombinant mouse VWF matrix after blood perfusion at 1500 s-1; PHEM 1% Triton X-100, 2 µM phalloidin; Mical1+/+ and Mical1-/- platelets, Mical1-/- with DMSO or LatA (125 nM); blot for β-actin.

With “human β-actin (F-actin) (from UniProt P60709 1-375) (natural protein)”, the fold increase of β-actin co-precipitated with GPIbα, VWF/ristocetin-activated against resting platelets in assay [1] is 20 fold.
Consider “mouse β-actin (F-actin) (from UniProt P60710 1-375) (natural protein)”, for which, in assay [2], the fold increase in β-actin co-precipitated with GPIbα, Mical1-/- against control platelets, after flow at 1500 s-1 is over 3 fold.

The values are drawn from publication PMC12335590.
